Data on 1 substance can be found in patent publication US20030119067A1, “PYK2 related products and methods” (Sugen, Inc., priority 1996, published 2003).

This assay deals with PYK2 (human, wild type, full length, transiently overexpressed in 293/293T cells) (human). In words: cell-based or functional assay.

Substance “endogenous Src of human embryonic kidney 293T cells (from UniProt P12931 2-536) (enzyme)” had an endogenous Src activity (pY416Src phosphorylation) in 293T cells of 4 fold.
